Binding of CDR-mutated scFvs to a peptide of the spike HR2 region

Target peptide (SARS-CoV-2 spike, HR2 region): PDVDLGDISGINAS

Parent: Ab-95, a human scFv built as VH, a (GGGGS)3 linker, VL. Only the CDRs of the light chain vary.
VH: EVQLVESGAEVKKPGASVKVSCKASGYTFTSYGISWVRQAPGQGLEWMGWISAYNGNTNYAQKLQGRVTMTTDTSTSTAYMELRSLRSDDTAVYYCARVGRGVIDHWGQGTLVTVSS
VL: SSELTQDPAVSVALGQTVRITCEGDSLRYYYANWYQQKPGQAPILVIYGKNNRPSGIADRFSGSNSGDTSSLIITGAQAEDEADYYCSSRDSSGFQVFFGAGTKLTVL

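Phage display of a naive human antibody library on the peptide gave the parent. Variants in AAYL52 differ from the parent at up to three CDR positions; double and triple changes were sampled at random. AlphaSeq pools MATa yeast showing the antibodies with MATalpha yeast showing the peptide. After mating in shaken culture at 30 °C for 16 h, diploids were selected and their barcode pairs sequenced. Read counts were normalised to the haploid input and turned into Kd by a linear fit to BCL2-family pairs of known affinity, for each replicate. Each pool was mated in three replicate cultures.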

Each variant is given by its three light chain CDRs, as the data file delimits them; those of the parent are EGDSLRYYYAN, GKNNRPS, SSRDSSGFQVF.
Values are log10 of the apparent Kd in nM; lower means stronger binding.
Replicates are averaged; those with no signal do not enter the mean.
A pair that was not seen in that replicate is written "n.d."; this usually means weak binding, but a binder can also be missed.
For reference, the parent read 2.31 as the reference entry and 2.25 as a member of this library.
Empty control strains, which show no peptide, gave a signal in 28% of pairings with library AAYL52; the median was 3.91 and 95% of these signals were weaker than 2.90. No background was subtracted. The control count says in how many pairings with the empty strains this scFv gave a signal, with their mean in brackets.

CDR-L1	CDR-L2	CDR-L3	log10 Kd, replicates	log10 Kd (nM), mean	signal with controls
EWDSLRYYYAN	GKNNRPH	SWRDSSGFQVF	n.d. / n.d. / 3.46	3.46	2/9 (3.65)
EGDSLPYYYAN	GKNNRPS	SSRESIGFQVF	2.96 / 3.25 / n.d.	3.10	2/9 (3.54)
EGDTLRYYYAN	GKNNSPS	SSRDISGFQVF	n.d. / n.d. / n.d.	n.d.	1/9 (3.89)
EGDSLRYYYAW	GKNNRPN	SSRDPSGFQVF	4.76 / 5.84 / n.d.	5.30	4/9 (4.96)
EGDSLRYYYAN	GKNTRPS	SARDTSGFQVF	1.58 / 1.37 / 1.10	1.35	2/9 (4.01)
EGDSLRYRYAN	GKNNRYS	SKRDSSGFQVF	2.95 / 3.23 / 3.11	3.10	4/9 (3.91)
EGDSLRYPYAR	GKNNRPS	SSRDSSGFAVF	4.18 / n.d. / 4.50	4.34	6/9 (3.88)
EGMSLRYYYAN	GKNDRPE	SSRDSSGFQVF	2.23 / 1.96 / 1.85	2.01	2/9 (4.52)
PGDSLRYSYAN	GKNNRPS	LSRDSSGFQVF	4.44 / 5.91 / n.d.	5.18	3/9 (4.27)
EGDYLRYYYAP	GKNNRWS	SSRDSSGFQVF	4.57 / 2.79 / n.d.	3.68	4/9 (3.92)
EGDSLRYYYAN	GKNNRWS	SSRDSSGFWRF	3.45 / n.d. / n.d.	3.45	0/9
EGDSLRYYYAN	GKNNRPS	SSRDSSGFCVT	2.20 / 2.02 / n.d.	2.11	0/9
EGDVLRYYYAW	GKNNRPS	SSRDSSGFQVF	3.10 / 3.77 / 2.77	3.22	1/9 (4.98)
EGDSLRYYYAN	GKNNRPK	SSRDSSGFQVF	2.47 / 2.31 / 2.28	2.35	3/9 (4.34)
EGDSLRYDYAN	GKNNRPS	CYRDSSGFQVF	4.96 / n.d. / n.d.	4.96	0/9
EGDSLVYYYAN	GKNNRPS	SSRDASGFQVF	3.07 / 3.39 / n.d.	3.23	3/9 (3.56)
EGDSGRYYYAN	GKMNRPS	SSRDSSGFQVF	n.d. / n.d. / 2.80	2.80	2/9 (3.86)
ETDQLRYYYAN	GKNNRPS	KSRDSSGFQVF	4.44 / n.d. / n.d.	4.44	0/9
AGDSLRYYWAN	GKNNRPS	SSRDSSGCQVF	4.13 / 2.83 / 3.35	3.44	2/9 (3.43)
EGDSLRYYYHN	GKTNRPS	SSRDSSGFQVF	3.63 / 3.67 / 3.76	3.69	4/9 (3.67)
EGDSLRYYYAN	GKNNRPS	SYGDSSGFQVF	2.94 / 3.18 / 2.32	2.81	4/9 (3.54)
SGDSLRYYYAN	GKNNRPS	GSEDSSGFQVF	3.38 / 4.51 / n.d.	3.95	2/9 (4.21)
EGDSLRYYYAN	NKNNRPS	SSRWPSGFQVF	3.08 / 2.79 / 2.83	2.90	2/9 (4.67)
EGDNLRYYYVN	GKNNRPS	SSRDSSGFVVF	n.d. / 3.24 / 3.19	3.22	1/9 (3.58)
EGDSLRYYYAN	GKNNRPC	SSRDSSQFQVN	3.07 / 4.34 / 4.69	4.03	6/9 (4.25)
EGFSLRYYYFN	GKNNRPS	SSRDSSGGQVF	n.d. / n.d. / n.d.	n.d.	3/9 (3.83)
EGDSLRYYYAN	GKNNRPS	AQRDSSAFQVF	3.10 / 2.29 / 2.14	2.51	3/9 (4.47)
EGDSLRWYYAN	GENNRPS	SSRDSSGSQVF	2.59 / 2.77 / 2.29	2.55	3/9 (3.97)
EGDSPRYYYAN	GKNNMPS	SSRDSSGFQVF	3.54 / 3.28 / 1.99	2.93	0/9
EGDSSRYYYAE	GKNNEPS	SSRDSSGFQVF	n.d. / n.d. / n.d.	n.d.	0/9
EGDSLFYYYAN	GKNNRPS	SSRDSSGFMQF	n.d. / n.d. / 3.99	3.99	1/9 (3.74)
EGDSLRYYYAN	WKNNRES	KSRDSSGFQVF	n.d. / n.d. / n.d.	n.d.	2/9 (3.43)
EGDSLRYAYAN	GKNNRTS	SSRDSKGFQVF	n.d. / n.d. / 3.95	3.95	2/9 (3.39)
EGDMQRYYYAN	GKNNRPS	SHRDSSGFQVF	n.d. / n.d. / 2.52	2.52	1/9 (4.58)
EGDSLRYFYAN	GKNNRIS	SSRDSSTFQVF	3.60 / n.d. / 3.71	3.65	3/9 (4.50)
EGTSYRYYYAN	GKNNRPS	SSRDSSGFQVI	3.44 / 4.07 / n.d.	3.75	5/9 (3.97)
ETDSLRYYYAN	GKNNNPS	SSRDSSGFQVF	n.d. / n.d. / n.d.	n.d.	1/9 (2.91)
EGDSLRYYYAN	GKNDRPS	SSGDSSGFVVF	2.76 / 4.34 / n.d.	3.55	5/9 (3.77)
EGDSLRYYYRC	GKNNRPS	SSRRSSGFQVF	4.06 / n.d. / 3.51	3.79	4/9 (3.54)
EGDSHRYVYAN	GKNNRPS	SSRDSSGFQVH	3.18 / 3.54 / n.d.	3.36	4/9 (3.98)
EGDSHRYYYAK	GKNNRPS	SSPDSSGFQVF	4.37 / 3.72 / n.d.	4.05	6/9 (4.53)
EGDSLRPYAAN	GKNNRPD	SSRDSSGFQVF	1.53 / 1.57 / 1.83	1.64	3/9 (4.48)
EVDSLRYQYAN	GKNNRPS	SHRDSSGFQVF	2.55 / 2.71 / 2.36	2.54	2/9 (5.19)
EGDSLRYYYAN	GKWGRPQ	SSRDSSGFQVF	n.d. / 3.54 / n.d.	3.54	1/9 (3.27)
VDDSLRYYYAN	GKNNRPS	SSRPSSGFQVF	3.31 / 3.21 / 3.47	3.33	4/9 (3.60)
EPDSLRWYYAN	GKNNRPS	SSRMSSGFQVF	3.40 / 2.34 / 2.75	2.83	4/9 (4.29)
EGDSLRYYYAN	GKNLRTS	SSRDSSGFTVF	n.d. / n.d. / n.d.	n.d.	1/9 (3.23)
EGQSLRYYYAN	GKNNRPS	SMRDDSGFQVF	3.30 / 4.31 / 3.18	3.59	2/9 (4.88)

Excerpt, the first 7 entries:

| CDR-L1 | CDR-L2 | CDR-L3 | log10 Kd, replicates | log10 Kd (nM), mean | signal with controls |
|---|---|---|---|---|---|
| EWDSLRYYYAN | GKNNRPH | SWRDSSGFQVF | n.d. / n.d. / 3.46 | 3.46 | 2/9 (3.65) |
| EGDSLPYYYAN | GKNNRPS | SSRESIGFQVF | 2.96 / 3.25 / n.d. | 3.10 | 2/9 (3.54) |
| EGDTLRYYYAN | GKNNSPS | SSRDISGFQVF | n.d. / n.d. / n.d. | n.d. | 1/9 (3.89) |
| EGDSLRYYYAW | GKNNRPN | SSRDPSGFQVF | 4.76 / 5.84 / n.d. | 5.30 | 4/9 (4.96) |
| EGDSLRYYYAN | GKNTRPS | SARDTSGFQVF | 1.58 / 1.37 / 1.10 | 1.35 | 2/9 (4.01) |
| EGDSLRYRYAN | GKNNRYS | SKRDSSGFQVF | 2.95 / 3.23 / 3.11 | 3.10 | 4/9 (3.91) |
| EGDSLRYPYAR | GKNNRPS | SSRDSSGFAVF | 4.18 / n.d. / 4.50 | 4.34 | 6/9 (3.88) |

Reference: Engelhart et al. 2022, doi:10.1038/s41597-022-01779-4. File: FLAb, binding data.